Assays:
[1] = system: human acute myelocytic leukemia (AML) cell lines; assay: 72 hour MTS assay
[2] = system: cell cycle progression; assay: cell cycle progression; settings: FIG. 33
[3] = system: healthy donor peripheral blood mononuclear cells; assay: long-term colony forming assay, toxicity to normal cells; settings: healthy donor PBMC, long-term colony forming assay (FIG. 34)
[4] = system: CD11b maturation marker on the surface of cells; assay: cell differentiation/maturation (CD11b maturation marker); settings: low doses; marginal compared with ATO (FIG. 32)
[5] = system: human leukemia cell lines and leukemic cells obtained from patients with acute or chronic leukemia; assay: long-term (7 day) colony-forming assay in semi-solid medium; settings: 7 day colony-forming assay (FIG. 27B)
[6] = system: leukemic cells; assay: modulation of GSH redox system (BSO, DTT, NAC pretreatment)
[7] = system: leukemic cells; assay: induction of apoptosis (mitochondrial membrane potential, caspase cleavage, PARP, annexin V)

## CCC[As](CCC)SCC(O)CO (centres unmarked)
[1]; different human AML cell lines
  IC50: 560 to 860 nM
[1]; human AML cell lines (FIG. 27A)
  activity compared with arsenic trioxide: higher than the activity of arsenic trioxide
[2]
  effect on cell cycle progression: no effect
[3]
  toxicity to normal cells compared with ATO: less toxic to normal cells than ATO
[4]
  cell differentiation/maturation (CD11b induction): partially induce cell differentiation/maturation
[5]
  anti-leukemic activity compared with arsenic trioxide: significantly higher activity than arsenic trioxide
[6]; BSO pretreatment (FIG. 30)
  sensitivity of leukemic cells to compound after pretreatment with buthionine sulfoximine (BSO): more sensitive
[6]; DTT or NAC pretreatment (FIG. 30)
  sensitivity of leukemic cells to compound after pretreatment with DTT or NAC: less sensitive
[6]; compared with ATO (FIG. 31)
  modulation of GSH redox system: earlier and to a greater extent than ATO
[7]; FIGS. 28 and 29
  induction of apoptosis compared with ATO: more potent in induction of apoptosis than ATO
[7]; mitochondrial membrane potential, caspase 9 cleavage
  apoptotic pathway activation: activated the mitochondrial apoptotic pathway

Reference: patent US11324714B2 (priority 2008, dated 2022)
